How the values were obtained:
[1] = solubility in water or ethanol
[2] = cited from earlier work

Row | Substance | solubility in ethanol ([1]; ethanol) | solubility in water ([1]; water) | solubility in water at 25° C. [2] [mg/mL]
1 | calcium (3S)-tetrahydrofuran-3-yl(1S,2R)-3-[(4-nitrophenyl)sulfonyl](isobutyl)amino-1-benzyl-2-(phosphonooxy)propyl-carbamate | extremely small solubility | extremely small solubility | –
2 | [(3S)-oxolan-3-yl]N-(2S,3R)-4-[(4-aminophenyl)sulfonyl-(2-methylpropyl)amino]-1-phenyl-3-phosphonooxy-butan-2-yl]carbarnate calcium salt [Fosamprenavir calcium] | – | – | 100
